Source: patent US6503881B2 (priority 1996, dated 2003)
Like-named read-outs stand apart in the source and are kept apart here.

Tests used:
[1] = format: in vitro ADME, rabbit; conditions: inhibitor at 100 μM; 3 hrs at 22° C.
Method: A 1 mg/mL solution of MBI 11B7CN in isotonic saline is added to freshly prepared heat-inactivated rabbit serum, to give a final peptide concentration of 100 μg/mL and is incubated at 32° C.
A series of peptide stability studies are performed to investigate the action of protease inhibitors on peptide degradation. Peptide is added to rabbit serum or plasma, either with or without protease inhibitors, then incubated at 22° C. for 3 hrs. Protease inhibitors tested include amastatin, bestatin, COMPLETE protease inhibitor cocktail, leupeptin, pepstatin A and EDTA. […] For this experiments 10 mM stock solutions of amastatin and bestatin are prepared in dimethylsulfoxide. These solutions are diluted 1:100 in heat-inactivated rabbit serum and incubated at 22° C. for 15 mins prior to addition of peptide. MBI 11B7CN is added to the serum at a final concentration of 100 μg/mL and incubated for 3 hrs at 22° C. After the incubation period, the serum samples are analyzed on an analytical C8 column (Waters Nova Pak C8 3.9×170 mm) with detection at 280 nm. In FIG. 13, MBI 11B7CN elutes at 25 min.

[2] = format: physicochemical; conditions: for Conformation in buffer / Conformation in TFE: CD; for Conformation in TFE: phosphate buffer and 40% (v/v) trifluoroethanol
[3] = tested on: mammalian red blood cells; format: cell-based; conditions: for % Lysis: 37° C., 1 hour, A540 vs 100% lysed standard
[4] = format: in vivo; conditions: intraperitoneal single dose, isotonic saline, Swiss CD1 mice, 5 days observation
[5] = parameters: species or system outbred ICR mice; conditions: mouse, in vivo, ip
[6] = format: physicochemical; conditions: calcium and magnesium supplemented Mueller Hinton broth; visual inspection
[7] = parameters: species or system outbred ICR mice; conditions: mouse, in vivo, iv
[8] = tested on: sheep RBC; format: cell-based
[9] = format: in vivo; conditions: intravenous single dose, isotonic saline, Swiss CD1 mice, 5 days observation
[10] = parameters: species or system mice; conditions: mouse, in vivo, iv
[11] = format: in vivo; conditions: Swiss CD-1 mice; for No. Surviving: cumulative
[12] = format: in vitro ADME, sheep
[13] = format: in vivo, mice; conditions: subcutaneous, 5 days
[14] = parameters: species or system mice; conditions: mouse, in vivo, ip, 40 mg/kg
[15] = format: in vivo, mice; conditions: iv
[16] = format: physicochemical; conditions: 400 μg/mL
[17] = 10 mM sodium phosphate buffer, pH 7.2
[18] = phosphate buffer and 40% (v/v) TFE

For bestatin, the “effect on degradation of MBI 11B7CN” value [1] was “prevent the degradation”.

With I L K K W P W W P W R R K [MBI 11ACN] the Conformation in buffer [2, 17] was “Unordered” and the “Conformation in TFE” value [2] was “Unordered”.

For I L K K W W W P W R R K [MBI 11G4CN], the Conformation in buffer [2, 17] was “Unordered”, the “Conformation in TFE” value [2] was “β-turn” and the “secondary structure (CD)” value [2, 18] was “β-turn structure”.

In the case of I L K K W P W W P W R K [MBI 11B4ACN], the Conformation in buffer [2, 17] is reported as “Unordered” and the “Conformation in TFE” value [2] is reported as “Unordered”.

In the case of W R I W K P K W R L P K W [MBI 11D18CN], the “% Lysis” value [3] is reported as 0.8%.

For i L K K W P W W P W R R k [MBI 11E3CN], the LD90-100 [4] was 40 mg/kg, the MTD [4] was under 20 mg/kg and the Conformation in buffer [2, 17] was “ppII helix”. The “Conformation in TFE” value [2] was “Unordered”.

In the case of I L K K W P W W P W R R [MBI 11G7ACN], the Conformation in buffer [2, 17] is reported as “Unordered” and the “Conformation in TFE” value [2] is reported as “Unordered”.

In the case of I L K K W P W W P W R R k [MBI 11E2CN], the Conformation in buffer [2, 17] is reported as “Unordered” and the “Conformation in TFE” value [2] is reported as “Unordered”.

For I L K K W P W W P W R R K [MBI 11CNY1], the Conformation in buffer [2, 17] was “Unordered” and the “Conformation in TFE” value [2] was “Unordered”.

In the case of I L P W K W P W W P W R R [MBI 10CN], the “dose up to which no toxicity was shown” value [5] is reported as 29 mg/kg, the solubility in broth [6] is reported as “less soluble than MBI 11CN” and the erythrocyte lysis [3] is reported as “substantial lysis”. The lysis [3] was 3.9%, the toxicity ([7]; 11 mg/kg) was 40% and the toxicity ([7]; 22 mg/kg) was 100%. For the same substance, the Conformation in buffer [2, 17] was “Unordered” and the “Conformation in TFE” value [2] was “Unordered”.

For I L K K W P W W P R R K [MBI 11G6ACN], the Conformation in buffer [2, 17] was “Unordered” and the “Conformation in TFE” value [2] was “Unordered”.

With “G N N R P V Y I P Q P R P P H P R I [Apidaecin IA, reference compound]” the “% Lysis” value [3] was 0.3%.

With I L R W V W W V W R R K [MBI 11F4CN] the solubility in broth [6] was “most insoluble”, the “erythrocyte lysis / toxicity” value [3] was “most insoluble and hemolytic” and the “secondary structure (CD)” value [2, 17] was “additional minima at 220 nm”. For the same substance, the Conformation in buffer [2, 17] was “Unordered”, the “Conformation in TFE” value [2] was “slight α-helix” and the “secondary structure (CD)” value [2, 18] was “increases 60 -helicity”.

In the case of I L K K W V W W P W R R K [MBI 11F3CN], the RBC lysis grouping ([8]; sheep RBC 1% (v/v), 5, 50 or 500 μg/ml, compared with MBI 11CN and Gramicidin-S) is reported as “significantly less lytic than the other two variants”, the LD90-100 [4] is reported as 80 mg/kg and the Conformation in buffer [2, 17] is reported as “ppII helix”. The “Conformation in TFE” value [2] was “Unordered”.

In the case of I L R W P W W P W R R K [MBI 11B7CN], the LD90-100 [4] is reported as over 80 mg/kg, the “secondary structure (CD)” value [2, 17] is reported as “unordered structures” and the “secondary structure (CD)” value [2, 18] is reported as “unordered”. For the same substance, the “secondary structure (CD)” value ([2]; phosphate buffer and liposomes) was “β-turn structure”.

In the case of “I L K K W P W W P W R R I M [MBI 11D13H]”, the “% Lysis” value [3] is reported as 1.7%.

In the case of “I L K K W P W W P W R R K M [MBI 11D11H]”, the “% Lysis” value [3] is reported as 0.7%.

For i L K K W P W W P W R R K [MBI 11E1CN], the Conformation in buffer [2, 17] was “Unordered” and the “Conformation in TFE” value [2] was “Unordered”.

With Amastatin the “effect on degradation of MBI 11B7CN” value [1] was “prevent the degradation”.

For I L R R W P W W P W R R R [MBI 11B9ACN], the Conformation in buffer [2, 17] was “Unordered” and the “Conformation in TFE” value [2] was “Unordered”.

In the case of I L K K W P W W P W R R K [MBI 11CN], the MTD [9] is reported as under 4 mg/kg, the “dose up to which no toxicity was shown” value [5] is reported as 40 mg/kg and the “free circulating peptide in blood” value [10] is reported as “not detectable”. For the same substance, the “% Dead” value ([11]; 3 mg/kg single iv dose) was 0%, the “Cumulative Dead” value ([11]; 3 mg/kg single iv dose) was 0 and the “No. Surviving” value ([11]; 3 mg/kg single iv dose) was 12. The “% Dead” value ([11]; 5 mg/kg single iv dose) was 0%, the “Cumulative Dead” value ([11]; 5 mg/kg single iv dose) was 0 and the “No. Surviving” value ([11]; 5 mg/kg single iv dose) was 6. The “% Dead” value ([11]; 8 mg/kg single iv dose) was 100%, the “Cumulative Dead” value ([11]; 8 mg/kg single iv dose) was 6 and the “No. Surviving” value ([11]; 8 mg/kg single iv dose) was 0. The “% Dead” value ([11]; 10 mg/kg single iv dose) was 100%, the “Cumulative Dead” value ([11]; 10 mg/kg single iv dose) was 12 and the “No. Surviving” value ([11]; 10 mg/kg single iv dose) was 0. The “% Dead” value ([11]; 13 mg/kg single iv dose) was 100%, the “Cumulative Dead” value ([11]; 13 mg/kg single iv dose) was 18 and the “No. Surviving” value ([11]; 13 mg/kg single iv dose) was 0. For the same substance, the LD50 ([11]; iv single dose) was 7 mg/kg, the “highest dose giving 100% survival” value ([11]; iv single dose) was 5 mg/kg and the LD50 ([11]; single iv dose in saline) was 7 mg/kg. For the same substance, the LD90-100 ([11]; single iv dose in saline) was 8 mg/kg, the MTD ([11]; single iv dose in saline) was 5 mg/kg and the erythrocyte lysis [3] was “substantial lysis”. For the same substance, the lysis [3] was 3.2%, the LD90-100 [4] was 40 mg/kg and the toxicity ([7]; 3 mg/kg) was 100%. For the same substance, the toxicity ([7]; 6.1 mg/kg) was 10%, the toxicity ([7]; 12 mg/kg) was 100% and the “peptide immediately released from formulation-peptide complex” value ([12]; on addition to the blood) was “up to 50%”. For the same substance, the “apparent half-life of free peptide” value ([12]; sheep plasma, 100 μg/mL, 37° C.) was 1.5 h, the LD90-100 [13] was “greater than 128 mg/kg” and the “blood level after 60 minutes” value [14] was “non-detectable”. The “toxicity (mortality) of multiple injections” value ([15]; two injections of 4.1 mg/kg with a 10 minute interval) was 60%, the “Result (mortality)” value ([15]; mouse, in vivo, 4.1 mg/kg) was 66% and the “Result (toxicity)” value ([15]; mouse, in vivo, 4.1 mg/kg) was 66% toxicity. For the same substance, the “secondary structure (CD)” value [2, 17] was “unordered structures”, the “secondary structure (CD)” value [2, 18] was “unordered” and the “secondary structure (CD)” value ([2]; phosphate buffer and liposomes) was “β-turn structure”. The “free peptide in formulation” value [16] was under 10%.

In the case of I L K K W P W W P W R R K [MBI 11], the erythrocyte lysis [3] is reported as “substantial lysis”, the lysis [3] is reported as 2.3% and the Conformation in buffer [2, 17] is reported as “Unordered”. The “Conformation in TFE” value [2] was “β-turn” and the “secondary structure (CD)” value [2, 18] was “β-turn structure”.

In the case of L K K W P W W P W R R K [MBI 11D1CN], the Conformation in buffer [2, 17] is reported as “Unordered” and the “Conformation in TFE” value [2] is reported as “Unordered”.

For Gramicidin-S [reference compound], the “% lysis at 5 μg/ml” value ([8]; 1% (v/v) sheep RBC, isotonic saline pH 6-7, 5 μg/ml peptide) was 30%.
